The assay has as its target FimH (Escherichia coli, UniProt Q1R2J4). The following applies: read-out: HA 50% titer; Table 13; Example 6 numbering.

Amino acid sequences for entries named in this document (tags omitted).
UniProt Q1R2J4, entry or part of it: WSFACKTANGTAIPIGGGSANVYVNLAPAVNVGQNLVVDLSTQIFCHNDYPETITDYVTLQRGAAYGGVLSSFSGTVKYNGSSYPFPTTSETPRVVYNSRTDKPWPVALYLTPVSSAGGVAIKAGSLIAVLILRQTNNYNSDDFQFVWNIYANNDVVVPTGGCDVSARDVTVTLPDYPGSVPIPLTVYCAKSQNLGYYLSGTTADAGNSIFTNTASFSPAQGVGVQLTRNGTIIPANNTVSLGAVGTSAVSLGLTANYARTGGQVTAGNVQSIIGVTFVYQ

Data on 1 compound can be found in patent publication US8937167B2 (Washington University, priority 2009, dated 2015).
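Also: hemagglutination inhibition of guinea pig erythrocytes agglutinated by type 1 piliated uropathogenic E. coli via FimH mannose binding, quantified through serial dilutions of compound.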

`CCCCO[C@H]1O[C@H](CO)[C@@H](O)[C@H](O)[C@@H]1O` [Butylman]: the EC50 is 125 µM.
